Experimental data published in patent US12089591B2 (priority 2005, dated 2024).

Tested on: ROUNDUP READY FLEX cotton
Settings: in vivo

Aluminum chloride hexahydrate
effect of metal salt on necrosis (in words): significantly reduce necrosis
